Source: patent US20050090480A1, “Use of selected amino acid-zinc complexes as anti-malarials” (Council of Scientific & Industrial Research, priority 2003, published 2005)

Test system: RBCs
Test: Effect on host cell (RBCs) in parasite cultures

Substance: Zinc complex of L-proline [PIZ2]
- effect on the host cell: No effect
